These results are taken from patent US12637428B2, “Isoquinoline derivatives as SIK2 inhibitors” (Cancer Research Technology Limited, priority 2019, dated 2026).

Protein sequences, listed by entry. Tags and fused reporters are not part of them. Residues count along the entry.
UniProt P12931, whole entry: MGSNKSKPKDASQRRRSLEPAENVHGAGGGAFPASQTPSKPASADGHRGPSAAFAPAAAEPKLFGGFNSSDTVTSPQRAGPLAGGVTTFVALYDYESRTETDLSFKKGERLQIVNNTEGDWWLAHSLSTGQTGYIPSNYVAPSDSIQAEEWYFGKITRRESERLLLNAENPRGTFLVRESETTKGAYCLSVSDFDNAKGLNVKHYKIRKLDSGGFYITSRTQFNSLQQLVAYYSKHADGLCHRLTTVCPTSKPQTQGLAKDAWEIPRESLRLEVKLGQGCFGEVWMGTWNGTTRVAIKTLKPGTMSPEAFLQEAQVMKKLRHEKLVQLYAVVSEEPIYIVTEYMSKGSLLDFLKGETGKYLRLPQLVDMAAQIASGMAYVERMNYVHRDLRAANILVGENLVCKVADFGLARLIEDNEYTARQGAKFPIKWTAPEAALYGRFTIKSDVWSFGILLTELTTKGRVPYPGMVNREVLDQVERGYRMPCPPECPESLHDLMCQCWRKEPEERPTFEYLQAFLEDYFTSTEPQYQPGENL
UniProt P29317, 24-976 limits assumed: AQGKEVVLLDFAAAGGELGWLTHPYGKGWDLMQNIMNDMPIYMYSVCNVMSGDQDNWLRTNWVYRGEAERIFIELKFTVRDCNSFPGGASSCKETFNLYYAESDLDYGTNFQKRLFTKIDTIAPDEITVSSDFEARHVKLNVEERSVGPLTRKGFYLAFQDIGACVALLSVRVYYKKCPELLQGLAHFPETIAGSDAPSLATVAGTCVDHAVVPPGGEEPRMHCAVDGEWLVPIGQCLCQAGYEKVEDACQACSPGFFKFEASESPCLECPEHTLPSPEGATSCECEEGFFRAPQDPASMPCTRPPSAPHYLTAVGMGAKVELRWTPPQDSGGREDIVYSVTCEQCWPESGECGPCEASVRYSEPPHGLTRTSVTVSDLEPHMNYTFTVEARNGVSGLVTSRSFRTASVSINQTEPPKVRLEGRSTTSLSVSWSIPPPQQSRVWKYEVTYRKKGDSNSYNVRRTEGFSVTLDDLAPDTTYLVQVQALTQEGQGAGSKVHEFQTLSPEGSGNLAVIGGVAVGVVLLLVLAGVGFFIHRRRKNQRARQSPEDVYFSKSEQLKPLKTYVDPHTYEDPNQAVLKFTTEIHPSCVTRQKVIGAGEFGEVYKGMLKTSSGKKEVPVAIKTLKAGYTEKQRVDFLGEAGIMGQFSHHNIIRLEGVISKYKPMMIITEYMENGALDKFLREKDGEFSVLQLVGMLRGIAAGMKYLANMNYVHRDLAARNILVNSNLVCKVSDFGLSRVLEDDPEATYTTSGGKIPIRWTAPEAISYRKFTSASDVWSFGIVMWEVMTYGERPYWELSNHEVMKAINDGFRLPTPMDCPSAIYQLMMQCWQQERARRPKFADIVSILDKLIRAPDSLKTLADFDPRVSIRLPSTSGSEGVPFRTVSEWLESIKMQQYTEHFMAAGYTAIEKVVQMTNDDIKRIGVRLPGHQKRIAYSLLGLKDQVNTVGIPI
UniProt P00519, whole entry: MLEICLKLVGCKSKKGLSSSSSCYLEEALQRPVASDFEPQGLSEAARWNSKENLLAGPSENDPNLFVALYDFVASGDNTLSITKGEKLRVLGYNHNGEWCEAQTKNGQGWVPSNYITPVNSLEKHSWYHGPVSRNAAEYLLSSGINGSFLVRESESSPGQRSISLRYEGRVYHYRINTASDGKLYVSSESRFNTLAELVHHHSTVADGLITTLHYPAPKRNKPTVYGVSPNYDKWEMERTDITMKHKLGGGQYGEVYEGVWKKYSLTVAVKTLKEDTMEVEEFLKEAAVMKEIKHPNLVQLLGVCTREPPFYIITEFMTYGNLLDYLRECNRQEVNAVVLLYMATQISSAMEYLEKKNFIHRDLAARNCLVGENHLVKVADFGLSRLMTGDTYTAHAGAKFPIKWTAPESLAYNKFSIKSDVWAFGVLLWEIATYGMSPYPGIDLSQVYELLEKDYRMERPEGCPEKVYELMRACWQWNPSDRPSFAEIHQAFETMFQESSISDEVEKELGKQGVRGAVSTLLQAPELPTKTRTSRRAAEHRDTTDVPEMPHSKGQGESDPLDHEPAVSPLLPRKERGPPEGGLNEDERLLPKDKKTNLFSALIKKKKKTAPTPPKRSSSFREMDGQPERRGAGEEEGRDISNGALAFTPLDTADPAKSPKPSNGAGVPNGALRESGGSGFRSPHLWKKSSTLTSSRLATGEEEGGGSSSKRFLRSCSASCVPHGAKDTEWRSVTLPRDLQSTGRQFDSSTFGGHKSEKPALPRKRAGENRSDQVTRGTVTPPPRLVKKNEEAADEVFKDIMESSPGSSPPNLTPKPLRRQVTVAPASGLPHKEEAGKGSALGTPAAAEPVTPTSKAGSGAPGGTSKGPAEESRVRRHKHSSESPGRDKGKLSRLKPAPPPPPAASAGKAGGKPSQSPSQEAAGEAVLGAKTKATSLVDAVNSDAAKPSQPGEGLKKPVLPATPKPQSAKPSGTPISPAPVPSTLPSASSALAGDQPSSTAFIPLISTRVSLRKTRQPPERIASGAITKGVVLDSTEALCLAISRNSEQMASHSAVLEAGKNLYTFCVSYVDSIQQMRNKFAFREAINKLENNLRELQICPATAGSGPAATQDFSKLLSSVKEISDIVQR
UniProt Q9Y2K2, whole entry: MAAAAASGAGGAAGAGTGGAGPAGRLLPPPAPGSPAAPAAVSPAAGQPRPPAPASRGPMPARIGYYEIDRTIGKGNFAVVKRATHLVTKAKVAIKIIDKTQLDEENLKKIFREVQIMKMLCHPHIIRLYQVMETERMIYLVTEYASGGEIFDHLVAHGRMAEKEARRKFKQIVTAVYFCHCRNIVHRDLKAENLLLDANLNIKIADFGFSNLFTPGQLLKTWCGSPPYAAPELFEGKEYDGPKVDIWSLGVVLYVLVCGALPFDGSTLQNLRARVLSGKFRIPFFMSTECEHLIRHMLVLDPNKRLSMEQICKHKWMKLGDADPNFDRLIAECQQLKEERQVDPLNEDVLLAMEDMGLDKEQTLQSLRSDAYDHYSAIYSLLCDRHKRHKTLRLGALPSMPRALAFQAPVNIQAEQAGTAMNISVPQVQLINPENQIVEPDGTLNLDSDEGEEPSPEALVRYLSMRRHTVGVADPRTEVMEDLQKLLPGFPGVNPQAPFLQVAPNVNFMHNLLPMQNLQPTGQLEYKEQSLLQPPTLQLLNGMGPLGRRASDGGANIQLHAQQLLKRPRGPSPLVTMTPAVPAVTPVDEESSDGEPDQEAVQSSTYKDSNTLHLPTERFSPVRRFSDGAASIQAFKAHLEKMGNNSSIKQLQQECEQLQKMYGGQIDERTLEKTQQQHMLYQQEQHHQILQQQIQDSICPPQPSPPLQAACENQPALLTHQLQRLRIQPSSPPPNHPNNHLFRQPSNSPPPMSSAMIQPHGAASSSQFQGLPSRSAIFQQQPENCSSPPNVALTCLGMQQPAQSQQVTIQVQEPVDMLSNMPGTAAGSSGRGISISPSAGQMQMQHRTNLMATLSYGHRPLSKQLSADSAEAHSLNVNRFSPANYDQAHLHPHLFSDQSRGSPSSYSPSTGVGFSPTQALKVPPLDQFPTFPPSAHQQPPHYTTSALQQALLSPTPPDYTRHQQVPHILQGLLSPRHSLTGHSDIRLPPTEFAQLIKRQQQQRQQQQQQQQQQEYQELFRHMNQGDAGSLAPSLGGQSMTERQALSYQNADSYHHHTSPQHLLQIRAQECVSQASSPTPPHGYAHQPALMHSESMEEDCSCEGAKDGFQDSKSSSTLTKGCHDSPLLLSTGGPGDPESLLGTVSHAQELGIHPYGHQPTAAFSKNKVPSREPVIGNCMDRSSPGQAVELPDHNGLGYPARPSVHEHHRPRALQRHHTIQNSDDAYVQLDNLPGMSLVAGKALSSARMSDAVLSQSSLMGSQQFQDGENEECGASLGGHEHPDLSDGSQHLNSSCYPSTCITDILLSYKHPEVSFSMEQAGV
UniProt P57059, whole entry: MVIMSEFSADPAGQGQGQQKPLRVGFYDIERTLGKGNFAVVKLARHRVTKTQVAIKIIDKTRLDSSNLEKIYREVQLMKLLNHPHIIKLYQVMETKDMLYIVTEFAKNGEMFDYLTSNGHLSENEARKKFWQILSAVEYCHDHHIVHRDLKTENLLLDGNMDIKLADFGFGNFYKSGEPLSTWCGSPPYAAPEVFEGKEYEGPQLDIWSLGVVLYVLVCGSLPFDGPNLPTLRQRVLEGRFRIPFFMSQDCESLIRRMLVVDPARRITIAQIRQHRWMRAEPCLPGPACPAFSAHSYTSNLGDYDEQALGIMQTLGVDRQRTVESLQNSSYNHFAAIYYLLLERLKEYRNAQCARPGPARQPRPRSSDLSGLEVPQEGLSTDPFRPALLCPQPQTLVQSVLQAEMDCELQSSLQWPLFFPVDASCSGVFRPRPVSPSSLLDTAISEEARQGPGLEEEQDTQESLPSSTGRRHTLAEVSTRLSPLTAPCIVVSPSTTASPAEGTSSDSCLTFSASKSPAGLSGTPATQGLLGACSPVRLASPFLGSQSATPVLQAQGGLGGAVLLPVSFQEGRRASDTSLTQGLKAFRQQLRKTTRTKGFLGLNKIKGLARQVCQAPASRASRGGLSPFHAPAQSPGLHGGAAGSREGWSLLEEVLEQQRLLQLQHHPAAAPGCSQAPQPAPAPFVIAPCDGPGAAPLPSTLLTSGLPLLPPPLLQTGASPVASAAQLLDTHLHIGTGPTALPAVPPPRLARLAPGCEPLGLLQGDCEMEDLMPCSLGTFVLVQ
UniProt Q9H0K1, whole entry: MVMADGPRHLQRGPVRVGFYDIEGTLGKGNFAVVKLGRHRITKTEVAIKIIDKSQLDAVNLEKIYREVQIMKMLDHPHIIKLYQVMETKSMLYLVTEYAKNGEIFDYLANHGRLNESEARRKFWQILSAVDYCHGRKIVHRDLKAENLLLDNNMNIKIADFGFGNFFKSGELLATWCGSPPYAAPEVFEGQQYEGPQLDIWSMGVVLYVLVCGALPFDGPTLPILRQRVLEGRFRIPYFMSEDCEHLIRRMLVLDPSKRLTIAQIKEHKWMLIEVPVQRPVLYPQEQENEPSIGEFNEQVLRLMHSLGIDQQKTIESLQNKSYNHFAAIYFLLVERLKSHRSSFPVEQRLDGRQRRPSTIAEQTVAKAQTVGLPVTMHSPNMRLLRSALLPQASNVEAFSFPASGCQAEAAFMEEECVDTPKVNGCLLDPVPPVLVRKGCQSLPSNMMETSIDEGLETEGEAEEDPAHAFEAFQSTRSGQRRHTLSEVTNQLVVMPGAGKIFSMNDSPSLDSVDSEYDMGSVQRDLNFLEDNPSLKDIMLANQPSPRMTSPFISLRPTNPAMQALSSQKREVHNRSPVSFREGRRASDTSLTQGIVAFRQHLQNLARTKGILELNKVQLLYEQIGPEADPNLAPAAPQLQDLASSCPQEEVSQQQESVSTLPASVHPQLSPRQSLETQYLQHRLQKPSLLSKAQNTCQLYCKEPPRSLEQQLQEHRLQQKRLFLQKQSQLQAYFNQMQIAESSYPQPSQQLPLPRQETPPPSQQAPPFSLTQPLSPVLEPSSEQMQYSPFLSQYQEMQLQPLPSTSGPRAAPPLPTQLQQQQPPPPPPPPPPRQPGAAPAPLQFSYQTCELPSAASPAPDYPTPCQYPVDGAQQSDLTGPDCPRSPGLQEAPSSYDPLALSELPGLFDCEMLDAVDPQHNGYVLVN

In experiment [1] the target is Src (Homo sapiens, UniProt P12931). Put plainly: Src kinase assay, IMAP fluorescence polarization. Conditions: read-out: Src - AVERAGE Ki, 50 or 100 μM ATP. The protocol: (§1) SIK2, SIK1, SIK3, Abl, Src and EPHA2 Kinase Assays
(§2) SIK2, SIK1, SIK3, Abl, Src and EPHA2 assays were performed using an IMAP fluorescence polarization assay format (Molecular Devices Inc.). 0.6-13 nM of each kinase (Life Technologies) was incubated for 60 min at room temperature with 100 nM of either FAM-Abltide, FAM-Srctide or FAM-HDAC protein derived peptide (synthesized by Alta Biosciences, Birmingham UK). Assays were carried out in the presence of 50 or 100 μM ATP in either 20 mM Tris buffer (pH 7.2) containing 4 mM MgCl2, 0.2% BSA and 2 mM DTT (SIK2, SIK1, SIK3, Abl, Src); or 20 mM Tris buffer (pH 8.5) containing 20 mM MgCl2, 0.5% BSA, 0.2% Triton and 5 mM DTT (EPHA2). Typically, dose response analyses were performed over concentration ranges from 0.00005-1 μM. Reactions were stopped by adding 2 assay volumes of 0.25% (v/v) IMAP binding reagent in either an 85:15 ratio (SIK2, SIK1, SIK3, Abl, EPHA2) or 30:70 ratio (Src) of IMAP binding buffers A and B (Molecular Devices). After incubation to allow the detection reagents to bind to the phosphorylated peptide, fluorescence polarization was measured on a Tecan Infinite plate reader at excitation (470 nm) and emission (530 nm) wavelengths. Inhibition was calculated using no inhibitor and no enzyme controls as 0 and 100% inhibition, respectively. […]

The target of experiment [2] is EPHA2 (Homo sapiens, UniProt P29317). Put plainly: EPHA2 kinase assay, IMAP fluorescence polarization. Conditions: read-out: EPHA2 - AVERAGE Ki, 50 or 100 μM ATP, Tris pH 8.5. The protocol:
as §1, §2

In experiment [3] the target is Abl (Homo sapiens, UniProt P00519). Put plainly: Abl kinase assay, IMAP fluorescence polarization. Conditions: read-out: Abl - AVERAGE Ki, 50 or 100 μM ATP. The protocol: as §1, §2
Experiment [4] addresses SIK3 (Homo sapiens, UniProt Q9Y2K2). Put plainly: SIK3 kinase assay, IMAP fluorescence polarization. Conditions: read-out: SIK3 - AVERAGE Ki, 50 or 100 μM ATP. The procedure: as §1, §2
Experiment [5] deals with SIK1 (Homo sapiens, UniProt P57059). Put plainly: SIK1 kinase assay, IMAP fluorescence polarization. Conditions: read-out: SIK1 - AVERAGE Ki, 50 or 100 μM ATP. The procedure:
as §1, §2

In experiment [6] the target is SIK2 (Homo sapiens, UniProt Q9H0K1). The experiment can be described thus: SIK2 kinase assay, IMAP fluorescence polarization. Conditions: read-out: SIK2 - AVERAGE Ki, 50 or 100 μM ATP. The protocol:
as §1, §2

Turning to `Cc1cccc(Cl)c1-c1ccc2c(C(=O)NC3CCN(C)CC3)c(N)ncc2c1`, the Ki in experiment [1] was 193 nM; in experiment [2], 124 nM; in experiment [3], 355 nM; in experiment [4], 72.5 nM; in experiment [5] it was 6.21 nM; in experiment [6], 4.41 nM.
